# According to article PMC10872706 (The FEBS journal, 2023):
# Read-outs that look alike come from different tables or passages of the source.
# System: E. coli BW25113 wild type
# Type: cell-based, Escherichia coli
structure (smiles),measurement,setting,value
"Cc1ncc(CO)c(C=O)c1O [PL, pyridoxal]",effect on bacterial growth,1.4 mM in M9 medium,negative effect
same,effect on bacterial growth,2 mM in M9 medium,huge lag
same,effect on bacterial growth,2.5 mM in M9 medium,complete arrest of growth
